Reference: ChEMBL document CHEMBL1135598, “In silico and NMR identification of inhibitors of the IGF-I and IGF-binding protein-5 interaction” (J Med Chem, 2002)

Sequences of proteins named here, by UniProt entry; tags and fusion partners are left off.
UniProt P24593, whole entry: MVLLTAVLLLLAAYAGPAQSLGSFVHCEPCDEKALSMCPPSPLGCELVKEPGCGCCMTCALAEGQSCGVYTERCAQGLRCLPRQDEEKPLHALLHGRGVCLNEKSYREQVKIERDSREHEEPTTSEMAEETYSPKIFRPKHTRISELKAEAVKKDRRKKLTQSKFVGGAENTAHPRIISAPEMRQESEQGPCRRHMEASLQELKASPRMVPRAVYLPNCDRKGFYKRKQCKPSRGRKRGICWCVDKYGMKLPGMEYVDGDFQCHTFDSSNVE

Target: Insulin-like growth factor-binding protein 5 (Homo sapiens, UniProt P24593)
Assay: Dissociation constant binding to Insulin-like growth factor binding protein 5 at the residue L-81

CC(C)C[C@@H](NC(=O)OCC1c2ccccc2-c2ccccc21)C(=O)O [N- (9-FLUORENYLMETHOXYCARBONYL)-L-LEUCINE]
Kd: 1090 µM
